The source of these data is ChEMBL document CHEMBL3785033, “Disrupting Acetyl-Lysine Recognition: Progress in the Development of Bromodomain Inhibitors” (J Med Chem, 2016).

The assay addresses Nucleosome-remodeling factor subunit BPTF (Homo sapiens, UniProt Q12830). The assay can be described thus: Binding affinity to BPTF (unknown origin) by isothermal titration calorimetric analysis.

The structures appear in SMILES notation.

`COC(=O)c1cccc(NC(=O)NC2CCN(c3ccnc(Nc4ccc(F)cc4)n3)C2)c1` (stereo unspecified) returned a Kd of 2.8 µM.
